Some compounds may have been tested in ways that are not shown here.

By UniProt entry, the sequences of proteins in these tests, tags left out.
UniProt P61169, whole entry: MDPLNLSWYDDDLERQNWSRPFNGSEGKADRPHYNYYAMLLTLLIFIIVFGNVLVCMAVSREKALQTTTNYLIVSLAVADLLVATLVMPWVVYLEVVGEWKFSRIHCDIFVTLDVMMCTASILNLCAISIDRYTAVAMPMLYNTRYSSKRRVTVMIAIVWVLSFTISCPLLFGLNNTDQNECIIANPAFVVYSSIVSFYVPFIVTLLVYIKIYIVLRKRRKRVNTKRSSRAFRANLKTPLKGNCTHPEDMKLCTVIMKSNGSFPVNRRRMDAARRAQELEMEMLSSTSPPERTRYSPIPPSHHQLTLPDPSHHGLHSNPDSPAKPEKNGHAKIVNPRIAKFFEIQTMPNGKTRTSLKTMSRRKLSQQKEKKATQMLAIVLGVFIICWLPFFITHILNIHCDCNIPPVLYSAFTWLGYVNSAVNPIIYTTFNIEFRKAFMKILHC

The test has as its target dopamine D2 receptor (Rattus norvegicus, UniProt P61169). The test is described as follows: Binding affinity with a dopamine D2 receptor ([3H]-spiperone membrane binding). Conditions: read-out: D2Ki value; rat corpus striatum membrane fraction, 0.1nM [3H]-spiperone, 37°C 30 minutes.

For `O=c1[nH]c2ccccc2n1C1CCN(Cc2ccc(Cl)nc2)CC1`, the Ki came out at 76 nM.

The record behind these values is patent publication EP1142587A1 (priority 1998, dated 2000).
